Experimental findings from patent US11020395B2, “Cycloalkyl substituted triazole compounds as agonists of the APJ receptor” (AMGEN INC., priority 2016, dated 2021) are described below.

Amino acid sequences for entries named in this document (tags omitted).
UniProt P35414, whole entry: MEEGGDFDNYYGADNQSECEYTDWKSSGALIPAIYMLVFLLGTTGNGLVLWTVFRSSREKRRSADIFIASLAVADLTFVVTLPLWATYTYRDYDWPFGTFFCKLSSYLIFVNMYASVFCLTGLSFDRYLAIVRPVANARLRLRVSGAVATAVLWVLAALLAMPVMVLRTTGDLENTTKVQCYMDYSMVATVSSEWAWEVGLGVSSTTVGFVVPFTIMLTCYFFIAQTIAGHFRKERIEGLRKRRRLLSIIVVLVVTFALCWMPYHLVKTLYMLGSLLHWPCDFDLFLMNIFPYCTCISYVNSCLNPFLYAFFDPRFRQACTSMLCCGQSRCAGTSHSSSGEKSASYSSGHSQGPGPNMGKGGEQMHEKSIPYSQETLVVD

Each structure is given as a SMILES string.

This test addresses APJ receptor (Homo sapiens (Human), UniProt P35414). As to the kind of experiment: [35S]GTPγS binding assay on membranes from CHO cells stably expressing human APJ receptor. The following applies: read-out: Activity hAPJ SPA EC50 IP, [35S]GTPγS SPA. In kind it is biochemical. On the procedure:
[^35S]GTPγS Binding The human APJ receptor was cloned by polymerase chain reaction and the gene encoding the receptor was subcloned in pFLAG-CMV™-3 expression vector (Sigma, Saint Louis, Mo. USA) in-house at Amgen. A GTPγS binding assay was performed on membranes prepared from CHO cells stably expressing human APJ receptor. The optimum experimental conditions for the concentrations of GDP, MgCl2, and NaCl in the assay buffer were initially determined. […] Incubation was at RT for 90 min and the microplate was read using a ViewLux™ ultra HTS Microplate Imager (PerkinElmer, Inc.). All the results presented are means of several independent experiments and analyzed by non-linear regression methods using the commercially available program Prism (GraphPad, San Diego, Calif.) providing the EC50 values detailed in Table 25.

Turning to `COc1ncnc(OC)c1-n1c(NS(=O)(=O)[C@@H](C)[C@H](OC)c2ncc(Cl)cn2)nnc1C1CCC(OC)CC1` (some centres unmarked), the EC50 came to 19 nM.

In the case of `COc1cccc(OC)c1-n1c(NS(=O)(=O)[C@@H](C)[C@H](OC)c2ncc(Cl)cn2)nnc1C1CCC(OC)C1` (single isomer, unassigned), the EC50 stood at 15 nM.
